Results taken from BindingDB's records for doi:10.1021/bi301387m (University of Auckland, 2013).

Target: T1, Anthranilate phosphoribosyltransferase (Mycobacterium tuberculosis (strain CDC 1551 / Oshkosh), UniProt P9WFX4)
T1 sequence (P9WFX4 whole entry): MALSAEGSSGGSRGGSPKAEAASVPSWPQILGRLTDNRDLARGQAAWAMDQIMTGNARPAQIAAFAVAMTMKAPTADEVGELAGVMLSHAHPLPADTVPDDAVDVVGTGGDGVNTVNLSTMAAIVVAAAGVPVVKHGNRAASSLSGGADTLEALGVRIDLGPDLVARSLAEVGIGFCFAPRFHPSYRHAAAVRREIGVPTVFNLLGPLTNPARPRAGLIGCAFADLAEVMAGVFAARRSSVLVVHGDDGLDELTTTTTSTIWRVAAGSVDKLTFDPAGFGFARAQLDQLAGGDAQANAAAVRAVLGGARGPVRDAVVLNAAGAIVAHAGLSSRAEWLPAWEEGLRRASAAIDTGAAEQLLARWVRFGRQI
Test: Fluoresence-based Assay

O=C(O)c1ccccc1Cc1ccccc1 [ACS No 174]
Ki: 18 µM
